Some compounds may have been tested in ways that are not shown here.
Columns and labels:
[1] = target: Voltage-gated inwardly rectifying potassium channel KCNH2 (Homo sapiens, UniProt Q12809); assay: Binding affinity to human ERG
[2] = target: D(2) dopamine receptor (Homo sapiens, UniProt P14416); assay: Binding affinity to dopamine D2 receptor
[3] = target: D(3) dopamine receptor (Homo sapiens, UniProt P35462); assay: Binding affinity to dopamine D3 receptor
[4] = target: Muscarinic acetylcholine receptor M4 (Homo sapiens, UniProt P08173); assay: Agonist activity at human muscarinic M4 receptor expressed in CHO cells coexpressing Galpha16 subunit assessed as intracellular calcium mobilization after 10 to 15 mins by FLIPR assay
[5] = target: Muscarinic acetylcholine receptor M5 (Homo sapiens, UniProt P08912); assay: Agonist activity at human muscarinic M5 receptor expressed in CHO cells assessed as intracellular calcium mobilization after 10 to 15 mins by FLIPR assay
[6] = test system: Liver microsomes; assay: Intrinsic clearance in human liver microsomes; assay type: ADME, Microsome
[7] = target: Muscarinic acetylcholine receptor M2 (Homo sapiens, UniProt P08172); assay: Agonist activity at human muscarinic M2 receptor expressed in CHO cells coexpressing Galpha16 subunit assessed as intracellular calcium mobilization after 10 to 15 mins by FLIPR assay
[8] = target: 5-hydroxytryptamine receptor 1A (Homo sapiens, UniProt P08908); assay: Activity at 5HT1A receptor
[9] = target: Muscarinic acetylcholine receptor M3 (Homo sapiens, UniProt P20309); assay: Agonist activity at human muscarinic M3 receptor expressed in CHO cells assessed as intracellular calcium mobilization after 10 to 15 mins by FLIPR assay
[10] = target: 5-hydroxytryptamine receptor 2A (Homo sapiens, UniProt P28223); assay: Binding affinity to 5HT2A receptor
[11] = target: Muscarinic acetylcholine receptor M1 (Homo sapiens, UniProt P11229); assay: Agonist activity at human muscarinic M1 receptor expressed in CHO cells assessed as intracellular calcium mobilization after 10 to 15 mins by FLIPR assay

By UniProt entry, the sequences of proteins in these tests, tags left out.
UniProt Q12809, whole entry: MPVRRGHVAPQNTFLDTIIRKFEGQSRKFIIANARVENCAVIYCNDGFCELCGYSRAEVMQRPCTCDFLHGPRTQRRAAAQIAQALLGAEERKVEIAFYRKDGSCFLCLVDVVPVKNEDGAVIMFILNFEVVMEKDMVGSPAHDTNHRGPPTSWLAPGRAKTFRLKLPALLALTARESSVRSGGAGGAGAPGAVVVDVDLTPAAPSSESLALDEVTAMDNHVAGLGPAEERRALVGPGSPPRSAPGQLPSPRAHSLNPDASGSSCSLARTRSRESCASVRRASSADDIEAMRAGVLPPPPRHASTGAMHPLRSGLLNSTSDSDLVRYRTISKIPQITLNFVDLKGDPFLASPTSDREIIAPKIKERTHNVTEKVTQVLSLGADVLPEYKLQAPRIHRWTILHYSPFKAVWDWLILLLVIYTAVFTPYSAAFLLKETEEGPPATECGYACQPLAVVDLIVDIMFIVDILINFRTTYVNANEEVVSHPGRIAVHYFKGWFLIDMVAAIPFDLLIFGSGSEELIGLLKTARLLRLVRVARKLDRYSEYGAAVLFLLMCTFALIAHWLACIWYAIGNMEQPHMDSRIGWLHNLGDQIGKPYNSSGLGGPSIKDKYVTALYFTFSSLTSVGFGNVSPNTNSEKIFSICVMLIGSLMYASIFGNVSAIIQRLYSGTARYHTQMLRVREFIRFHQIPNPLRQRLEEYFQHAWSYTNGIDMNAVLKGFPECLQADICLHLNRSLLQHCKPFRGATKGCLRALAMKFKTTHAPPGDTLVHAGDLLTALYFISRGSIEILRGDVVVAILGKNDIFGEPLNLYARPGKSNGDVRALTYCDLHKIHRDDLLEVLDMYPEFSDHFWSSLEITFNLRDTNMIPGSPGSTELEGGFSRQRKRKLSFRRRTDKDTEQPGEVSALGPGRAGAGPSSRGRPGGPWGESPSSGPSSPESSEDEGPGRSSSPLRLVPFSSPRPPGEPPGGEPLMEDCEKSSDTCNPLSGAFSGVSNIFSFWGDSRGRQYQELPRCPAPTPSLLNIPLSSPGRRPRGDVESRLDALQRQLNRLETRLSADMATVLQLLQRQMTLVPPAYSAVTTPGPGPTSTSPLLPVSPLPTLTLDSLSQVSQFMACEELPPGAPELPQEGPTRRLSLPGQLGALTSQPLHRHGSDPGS
UniProt P14416, whole entry: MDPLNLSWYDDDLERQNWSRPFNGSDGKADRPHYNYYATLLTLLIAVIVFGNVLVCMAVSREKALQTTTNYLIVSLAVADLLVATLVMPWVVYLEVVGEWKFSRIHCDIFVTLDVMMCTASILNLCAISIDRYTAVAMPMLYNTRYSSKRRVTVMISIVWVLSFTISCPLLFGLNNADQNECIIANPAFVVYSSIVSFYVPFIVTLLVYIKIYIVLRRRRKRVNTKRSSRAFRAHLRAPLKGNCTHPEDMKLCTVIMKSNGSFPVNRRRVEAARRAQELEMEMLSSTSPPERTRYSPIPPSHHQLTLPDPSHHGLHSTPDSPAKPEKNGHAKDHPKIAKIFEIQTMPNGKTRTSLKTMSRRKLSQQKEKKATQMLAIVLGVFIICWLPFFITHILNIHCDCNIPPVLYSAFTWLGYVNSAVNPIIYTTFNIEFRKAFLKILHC
UniProt P35462, whole entry: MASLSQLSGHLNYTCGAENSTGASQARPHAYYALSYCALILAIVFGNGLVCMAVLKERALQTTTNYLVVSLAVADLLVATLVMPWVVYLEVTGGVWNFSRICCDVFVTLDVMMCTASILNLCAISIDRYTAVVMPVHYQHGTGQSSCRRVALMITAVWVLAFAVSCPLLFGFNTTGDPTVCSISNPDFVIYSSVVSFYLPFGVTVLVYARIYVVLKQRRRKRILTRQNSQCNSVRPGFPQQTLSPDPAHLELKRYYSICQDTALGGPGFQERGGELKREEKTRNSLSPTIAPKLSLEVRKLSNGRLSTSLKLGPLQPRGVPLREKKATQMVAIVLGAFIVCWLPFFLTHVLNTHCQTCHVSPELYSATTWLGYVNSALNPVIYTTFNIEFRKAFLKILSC
UniProt P08173, whole entry: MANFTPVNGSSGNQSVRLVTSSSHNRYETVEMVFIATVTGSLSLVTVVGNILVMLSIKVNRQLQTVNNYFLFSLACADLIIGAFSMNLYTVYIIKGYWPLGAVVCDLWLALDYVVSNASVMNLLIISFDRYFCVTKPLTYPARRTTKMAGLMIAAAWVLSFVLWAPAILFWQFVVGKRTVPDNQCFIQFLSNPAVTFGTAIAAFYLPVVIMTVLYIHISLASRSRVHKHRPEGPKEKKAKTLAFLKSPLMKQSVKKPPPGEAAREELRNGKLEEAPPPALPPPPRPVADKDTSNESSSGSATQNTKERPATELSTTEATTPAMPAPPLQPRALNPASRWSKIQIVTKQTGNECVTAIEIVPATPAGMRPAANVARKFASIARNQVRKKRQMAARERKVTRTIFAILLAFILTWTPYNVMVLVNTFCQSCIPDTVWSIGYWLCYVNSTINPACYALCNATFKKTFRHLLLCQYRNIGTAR
UniProt P08912, whole entry: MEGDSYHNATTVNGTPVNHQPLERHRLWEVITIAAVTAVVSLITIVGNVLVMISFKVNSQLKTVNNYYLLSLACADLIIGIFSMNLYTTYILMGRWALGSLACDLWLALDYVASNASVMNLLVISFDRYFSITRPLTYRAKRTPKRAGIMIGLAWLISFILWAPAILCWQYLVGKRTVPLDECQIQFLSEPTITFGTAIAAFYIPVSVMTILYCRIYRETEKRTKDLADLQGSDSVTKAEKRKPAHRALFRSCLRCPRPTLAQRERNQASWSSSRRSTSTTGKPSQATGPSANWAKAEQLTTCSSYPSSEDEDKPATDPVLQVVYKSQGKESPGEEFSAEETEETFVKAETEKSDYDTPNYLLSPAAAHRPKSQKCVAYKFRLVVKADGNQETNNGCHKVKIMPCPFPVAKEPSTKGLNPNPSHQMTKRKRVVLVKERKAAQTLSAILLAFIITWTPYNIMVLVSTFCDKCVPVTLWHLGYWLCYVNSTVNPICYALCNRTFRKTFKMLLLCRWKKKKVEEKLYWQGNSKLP
UniProt P08172, whole entry: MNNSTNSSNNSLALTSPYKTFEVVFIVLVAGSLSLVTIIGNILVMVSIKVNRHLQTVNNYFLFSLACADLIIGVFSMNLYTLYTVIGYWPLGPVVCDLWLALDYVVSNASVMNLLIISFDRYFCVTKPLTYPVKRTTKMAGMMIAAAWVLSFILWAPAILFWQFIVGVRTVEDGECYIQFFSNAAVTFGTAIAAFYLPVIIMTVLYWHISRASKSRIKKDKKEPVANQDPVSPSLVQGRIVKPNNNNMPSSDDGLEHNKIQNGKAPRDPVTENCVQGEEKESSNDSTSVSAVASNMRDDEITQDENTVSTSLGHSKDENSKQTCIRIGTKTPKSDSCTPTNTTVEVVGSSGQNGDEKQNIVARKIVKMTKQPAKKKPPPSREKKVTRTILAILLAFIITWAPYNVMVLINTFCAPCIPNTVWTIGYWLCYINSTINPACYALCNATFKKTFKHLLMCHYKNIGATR
UniProt P08908, whole entry: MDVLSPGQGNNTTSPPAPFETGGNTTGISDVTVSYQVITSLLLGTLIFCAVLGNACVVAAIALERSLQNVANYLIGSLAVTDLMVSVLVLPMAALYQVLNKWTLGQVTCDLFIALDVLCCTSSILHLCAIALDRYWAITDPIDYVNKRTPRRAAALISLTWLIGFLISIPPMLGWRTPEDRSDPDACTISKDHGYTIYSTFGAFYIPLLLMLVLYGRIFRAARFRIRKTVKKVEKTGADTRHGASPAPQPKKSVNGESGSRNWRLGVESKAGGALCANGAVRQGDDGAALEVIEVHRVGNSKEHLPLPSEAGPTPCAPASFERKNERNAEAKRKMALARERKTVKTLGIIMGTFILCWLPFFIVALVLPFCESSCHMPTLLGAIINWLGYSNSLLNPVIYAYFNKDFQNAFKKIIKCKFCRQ
UniProt P20309, whole entry: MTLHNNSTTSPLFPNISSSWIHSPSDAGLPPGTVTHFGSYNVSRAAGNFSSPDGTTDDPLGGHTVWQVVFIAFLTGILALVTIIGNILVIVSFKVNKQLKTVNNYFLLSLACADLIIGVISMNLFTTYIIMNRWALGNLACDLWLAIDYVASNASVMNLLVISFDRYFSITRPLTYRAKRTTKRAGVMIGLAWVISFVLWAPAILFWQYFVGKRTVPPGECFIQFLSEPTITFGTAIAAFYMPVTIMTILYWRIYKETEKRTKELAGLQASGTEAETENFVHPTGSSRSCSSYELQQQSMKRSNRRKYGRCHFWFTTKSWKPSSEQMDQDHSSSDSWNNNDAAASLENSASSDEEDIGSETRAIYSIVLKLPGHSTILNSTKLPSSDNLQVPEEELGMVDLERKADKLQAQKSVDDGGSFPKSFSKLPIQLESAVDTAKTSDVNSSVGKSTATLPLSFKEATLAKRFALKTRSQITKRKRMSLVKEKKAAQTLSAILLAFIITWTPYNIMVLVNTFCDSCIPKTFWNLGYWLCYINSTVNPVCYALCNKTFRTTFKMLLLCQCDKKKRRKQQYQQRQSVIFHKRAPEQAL
UniProt P28223, whole entry: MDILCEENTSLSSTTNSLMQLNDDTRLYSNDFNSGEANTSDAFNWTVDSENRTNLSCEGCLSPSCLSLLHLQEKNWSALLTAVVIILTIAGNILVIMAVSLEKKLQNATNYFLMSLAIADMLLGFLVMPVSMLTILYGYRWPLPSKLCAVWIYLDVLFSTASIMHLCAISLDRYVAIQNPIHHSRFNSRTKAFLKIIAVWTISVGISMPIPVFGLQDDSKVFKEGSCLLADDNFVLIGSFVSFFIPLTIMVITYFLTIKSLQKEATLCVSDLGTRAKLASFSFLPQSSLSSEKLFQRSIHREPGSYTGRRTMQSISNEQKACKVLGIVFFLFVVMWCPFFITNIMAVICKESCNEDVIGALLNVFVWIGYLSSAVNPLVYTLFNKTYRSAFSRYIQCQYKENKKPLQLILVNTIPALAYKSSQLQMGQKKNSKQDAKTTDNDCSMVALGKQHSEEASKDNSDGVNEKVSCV
UniProt P11229, whole entry: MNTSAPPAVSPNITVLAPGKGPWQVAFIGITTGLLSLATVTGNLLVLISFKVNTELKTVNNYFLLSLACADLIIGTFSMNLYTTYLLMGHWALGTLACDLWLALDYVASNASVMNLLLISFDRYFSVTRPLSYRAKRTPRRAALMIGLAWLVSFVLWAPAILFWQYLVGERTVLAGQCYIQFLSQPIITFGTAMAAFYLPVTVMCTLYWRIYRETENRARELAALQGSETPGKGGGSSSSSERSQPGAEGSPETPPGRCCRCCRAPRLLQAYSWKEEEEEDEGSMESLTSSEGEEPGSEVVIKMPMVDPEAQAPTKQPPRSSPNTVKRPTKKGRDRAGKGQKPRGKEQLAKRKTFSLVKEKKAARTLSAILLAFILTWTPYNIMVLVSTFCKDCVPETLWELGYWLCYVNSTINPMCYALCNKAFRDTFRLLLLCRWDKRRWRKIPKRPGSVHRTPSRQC

For `O=c1[nH]c2ccccc2n1C1CCN(C2CCCCC2)CC1`, the pIC50 [1] was < 4.2, the pKi [2] was < 5.9 and the pKi [3] was < 6.3. The pEC50 [4] was 7.7, the pEC50 [5] was < 5 and the CLH [6] was 1.9 mL/min/g. The pEC50 [7] was 7.1, the pEC50 [8] was < 5.5 and the pEC50 [9] was 5.4. For the same compound, the pKi [10] was < 5.6 and the pEC50 [11] was 7.9.
